This is a selection; strong and weak results do not stand in their true shares. Activity calls are given as the source filed them.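 How the source made its calls: active means activation above the run's mean over test compounds plus 3 SD (cut at about 23% in these data); inactive means the rest.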
The compounds below were run against Muscarinic acetylcholine receptor M5 (Homo sapiens) (UniProt P08912) (assay: human M5 muscarinic receptor agonists, primary screen, CHO-K1 cells, Fluo-8 calcium fluorescence (AID 624037;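 further: signal is peak over basal fluorescence ratio across the kinetic read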)). Conditions: CHO-K1 hM5 cells, at 3 µM, active compounds read high, 0% DMSO wells, 100% maximal acetylcholine response.

Sequences of proteins named here, by UniProt entry; tags and fusion partners are left off.
UniProt P08912, whole entry: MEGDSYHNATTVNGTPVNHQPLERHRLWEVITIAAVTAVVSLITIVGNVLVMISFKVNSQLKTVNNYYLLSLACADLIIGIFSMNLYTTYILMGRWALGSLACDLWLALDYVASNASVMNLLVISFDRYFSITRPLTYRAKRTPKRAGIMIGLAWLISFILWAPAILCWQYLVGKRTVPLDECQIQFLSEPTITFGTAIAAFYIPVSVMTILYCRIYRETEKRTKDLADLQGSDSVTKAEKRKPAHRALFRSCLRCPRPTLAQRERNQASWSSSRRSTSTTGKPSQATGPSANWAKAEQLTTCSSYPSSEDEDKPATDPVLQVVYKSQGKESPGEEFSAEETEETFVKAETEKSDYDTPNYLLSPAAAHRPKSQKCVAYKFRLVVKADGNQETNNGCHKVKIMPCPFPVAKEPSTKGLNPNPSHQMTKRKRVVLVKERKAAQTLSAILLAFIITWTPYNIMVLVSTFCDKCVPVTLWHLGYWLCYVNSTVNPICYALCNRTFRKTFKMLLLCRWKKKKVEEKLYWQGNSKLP

SMILES	activation
CCOC(=O)c1ccc(NP(C)(=O)Oc2ccccc2)cc1 (stereo unspecified)	inactive: 0.67%
Cc1cc(C)cc(OP(C)(N)=O)c1 (stereo unspecified)	inactive: 3.99%
COc1ccccc1OP(C)(=O)Nc1cc(Cl)ccc1C (stereo unspecified)	inactive: -1.07%
COc1ccc(OP(C)(=O)Nc2cccc(F)c2)cc1 (stereo unspecified)	inactive: -1.67%
COc1cc(C(=O)NCC2(N3CCOCC3)CCCCC2)ccc1OCC(C)C	inactive: -0.88%
O=[N+]([O-])c1cc([N+](=O)[O-])c(Nc2cccnc2)c([N+](=O)[O-])c1	inactive: 9.75%
O=[N+]([O-])c1ccc2c(c1)C=Nc1ccccc1O2	inactive: -2.44%
CC(C)(C)c1ccc(OP(C)(=O)Nc2ccc(SC(F)(F)F)cc2)cc1 (stereo unspecified)	inactive: -7.07%
Cc1cccc(C)c1OP(C)(N)=O (stereo unspecified)	inactive: 3.18%
CP(=S)(Nn1cnnc1)Oc1ccccc1 (stereo unspecified)	inactive: 1.53%
CP(=O)(Nc1ccccc1Br)Oc1ccccc1 (stereo unspecified)	inactive: -4.84%
COc1ccccc1OP(C)(=O)Nc1ccccc1 (stereo unspecified)	inactive: 0.96%
CCCCOc1ccc(C(=O)NCC2(N3CCCCC3)CCCCC2)cc1OC	inactive: -3.5%
O=[N+]([O-])c1cc([N+](=O)[O-])c(O)c([N+](=O)[O-])c1.c1ccc(Oc2ccncc2)cc1	inactive: 5.89%
CCOC(=O)c1ccc(NP(C)(=O)Oc2ccc(OC)cc2)cc1 (stereo unspecified)	inactive: -2.04%
CCOP(C)(=S)SCC(=O)NC(C)C(=O)O (stereo unspecified)	inactive: -2%
CP(=O)(Nc1ccccn1)Oc1ccc(Cl)cc1 (stereo unspecified)	inactive: 1.56%
CP(=O)(Nc1ccc(SC(F)(F)F)cc1)Oc1ccc(Cl)cc1 (stereo unspecified)	inactive: -0.72%
Cc1cccc(C)c1OP(C)(=O)Nc1ccc(SC(F)(F)F)cc1 (stereo unspecified)	inactive: -3.71%
Cc1ccc(Nc2c([N+](=O)[O-])cc([N+](=O)[O-])cc2[N+](=O)[O-])cc1	inactive: 3.48%
CP(=O)(Oc1ccccc1)OC(c1ccccc1)C(F)(F)F (stereo unspecified)	inactive: -3.7%
CCc1ccc(OP(C)(=O)N2CCN(c3ccc([N+](=O)[O-])cc3)CC2)cc1 (stereo unspecified)	inactive: -0.21%
CP(=O)(NC(=O)Nc1ccccc1)Oc1ccccc1 (stereo unspecified)	inactive: 1.55%

SMILES	activation
Cc1cc(C)cc(OP(C)(=O)Nc2ccc(SC(F)(F)F)cc2)c1 (stereo unspecified)	inactive: 0.7%
O=[N+]([O-])c1cc([N+](=O)[O-])c(-c2cnn(-c3ccccc3)c2)c([N+](=O)[O-])c1	inactive: -3.02%
Cc1nc2ccc3ccccc3c2s1.O=[N+]([O-])c1cc([N+](=O)[O-])c(O)c([N+](=O)[O-])c1	inactive: -10.9%
O=[N+]([O-])c1cc([N+](=O)[O-])c(-n2nnc3ccccc32)c([N+](=O)[O-])c1	inactive: -0.07%
CN(Cc1cccnc1)C(=O)COc1ccc(Cl)c(Cl)c1.O=[N+]([O-])c1cc([N+](=O)[O-])c(O)c([N+](=O)[O-])c1	inactive: 2.11%
CN1CCCCC1COC(=O)C1(O)c2ccccc2CCc2ccccc21 (stereo unspecified)	inactive: -8.98%
COc1ccccc1OP(C)(=O)Nc1c(C)cccc1C (stereo unspecified)	inactive: -0.43%
COc1ccc(-c2ccccn2)cc1.O=[N+]([O-])c1cc([N+](=O)[O-])c(O)c([N+](=O)[O-])c1	inactive: 2.2%
CP(=O)(Nc1ccc(SC(F)(F)F)cc1)Oc1ccccc1 (stereo unspecified)	inactive: -4.55%
CCCOc1ccc(NP(C)(=O)Oc2ccc(Cl)cc2)cc1 (stereo unspecified)	inactive: -5.34%
O=[N+]([O-])c1cc([N+](=O)[O-])c(Nc2nnnn2CCO)c([N+](=O)[O-])c1	inactive: -0.07%
CC1=C2N=C(C=C3N=C(C(C)=C4[N-][C@@](C)([C@@H]5N=C1[C@](C)(CCC(=O)NC[C@@H](C)OP(=O)([O-])O[C@H]1[C@@H](O)[C@@H](n6cnc7cc(C)c(C)cc76)O[C@@H]1CO)[C@H]5CC(N)=O)[C@@](C)(CC(N)=O)[C@@H]4CCC(N)=O)[C@@](C)(CC(N)=O)[C@@H]3CCC(N)=O)C(C)(C)[C@@H]2CCC(N)=O.[C-]#N.[Co+3]	inactive: 0.19%
CN(C)C1(CNC(=O)c2ccc(S(C)(=O)=O)cc2)CCCCC1	inactive: 1.88%
CCOC(=O)C(CC)C1=NC(C)(C)Cc2ccccc21.O=[N+]([O-])c1cc([N+](=O)[O-])c(O)c([N+](=O)[O-])c1 (stereo unspecified)	inactive: 0.77%
CC1=NCCc2c1[nH]c1ccccc21.O=[N+]([O-])c1cc([N+](=O)[O-])c(O)c([N+](=O)[O-])c1	inactive: -4.43%
O=C(O)c1cccc(Nc2c([N+](=O)[O-])cc([N+](=O)[O-])cc2[N+](=O)[O-])c1	inactive: -0.42%
Cc1ccc(C)c(NP(C)(=O)Oc2ccccc2)c1 (stereo unspecified)	inactive: 0.9%
CP(=O)(Nc1cccc(Br)c1)Oc1ccccc1 (stereo unspecified)	inactive: 1.96%
Cc1cc(C)cc(OP(C)(=O)Nc2ccccn2)c1 (stereo unspecified)	inactive: 0.84%
COc1cc(C(=O)NCC2(N3CCOCC3)CCCCC2)cc(Cl)c1OC(C)C	inactive: -3.09%
COc1ccccc1OP(C)(=O)Nc1cccc(Br)c1 (stereo unspecified)	inactive: -4.88%
CCOC(=O)c1ccc(NP(C)(=O)Oc2cc(C)cc(C)c2)cc1 (stereo unspecified)	inactive: -0.87%
Cc1cc(C)cc(OP(C)(=O)Nc2ccc(C)cc2C)c1 (stereo unspecified)	inactive: -0.83%

— PubChem BioAssay AID624037 (The Scripps Research Institute Molecular Screening Center, 2012)
